In patent publication US8252899B2, “Methods and compositions for obtaining high-resolution crystals of membrane proteins” (The Scripps Research Institute, priority 2007, dated 2012):

Test system: β2AR-T4L
Experiment: Competition binding against 0.5 nM [3H]DHA, Sf9 membranes, β2AR-T4L
Design: species or system human

COc1ccc(CC(C)NCC(O)c2ccc(O)c(NC=O)c2)cc1 (stereo not shown)
affinity for β2AR-T4L relative to wild-type β2AR (competition binding): two to three-fold higher
